In ChEMBL document CHEMBL1687837, “Roles of residues Cys69, Asn104, Phe160, Gly232, Ser237, and Asp240 in extended-spectrum beta-lactamase Toho-1” (2011):

Experiments:
[1] = substrate: CC1(C)S[C@@H]2[C@H](NC(=O)Cc3ccccc3)C(=O)N2[C@H]1C(=O)O; assay: Activity of Escherichia coli wild type beta-lactamase Toho-1 assessed as compound hydrolysis by spectrophotometry
[2] = substrate: CC1(C)S[C@@H]2[C@H](NC(=O)[C@H](N)c3ccccc3)C(=O)N2[C@H]1C(=O)O; assay: (§1) Ratio of Kcat to Km for Escherichia coli wild type beta-lactamase Toho-1 assessed as compound hydrolysis by spectrophotometry
[3] = substrate: CC1(C)S[C@@H]2[C@H](NC(=O)Cc3ccccc3)C(=O)N2[C@H]1C(=O)O; assay: as §1

B1: Beta-lactamase Toho-1 (Escherichia coli), Q47066 (protein)
chain: MMTQSIRRSMLTVMATLPLLFSSATLHAQANSVQQQLEALEKSSGGRLGVALINTADNSQILYRADERFAMCSTSKVMAAAAVLKQSESDKHLLNQRVEIKKSDLVNYNPIAEKHVNGTMTLAELGAAALQYSDNTAMNKLIAHLGGPDKVTAFARSLGDETFRLDRTEPTLNTAIPGDPRDTTTPLAMAQTLKNLTLGKALAETQRAQLVTWLKGNTTGSASIRAGLPKSWVVGDKTGSGDYGTTNDIAVIWPENHAPLVLVTYFTQPEQKAERRRDILAAAAKIVTHGF
With B1 the Km [1] was 18 µM, the kcat [1] was 65 s⁻¹ and the kcat/Km [2] was 1.8 ×10⁶ /s/M. It also gave a kcat/Km [3] of 3.6 ×10⁶ /s/M.
